{"source": "the NIST ThermoML archive (doi:10.1016/j.fluid.2018.07.028)", "assay": "activity coefficient (dimensionless); of the first substance listed, at infinite dilution; xn = mol fraction of the nth substance listed", "conditions": "101.33 kPa, Liquid, Chromatography, x1 = 0", "note": "Numbers after ± are expanded uncertainties.", "data": [{"smiles": "CCCCOCCCC", "note": "[dibutyl ether] + CCCC[P+](CCCC)(CCCC)CCCC.O=S(=O)([N-]S(=O)(=O)C(F)(F)F)C(F)(F)F", "values": [{"measurement": "activity coefficient", "setting": "358.15 K", "result": "4.19 ± 0.29"}, {"measurement": "activity coefficient", "setting": "368.15 K", "result": "4.19 ± 0.29"}, {"measurement": "activity coefficient", "setting": "378.15 K", "result": "4.19 ± 0.29"}, {"measurement": "activity coefficient", "setting": "388.15 K", "result": "4.19 ± 0.29"}, {"measurement": "activity coefficient", "setting": "398.15 K", "result": "4.2 ± 0.29"}, {"measurement": "activity coefficient", "setting": "408.15 K", "result": "4.2 ± 0.29"}]}]}
